Consider 18 compounds from patent US8927500B2, “Peptidomimetic macrocycles” (Aileron Therapeutics, Inc., priority 2012, dated 2015).

One may read the EC50 as the concentration at which the effect is half-maximal.

Each structure is given as a SMILES string.

The assay has as its system RKO cells. Briefly: Cell viability assay (MTT), RKO. Particulars: read-out: RKO EC50 (72 h).
On to `CCCC[C@H](NC(=O)[C@H](C)NC(=O)[C@H](C)NC(=O)[C@]1(C)CCCC=CCCCCCC[C@@](C)(NC(=O)[C@H](Cc2ccccc2)NC(=O)[C@@H](NC(=O)[C@H](CC(C)C)NC(=O)CN(C)C)[C@@H](C)O)C(=O)N[C@@H](C)C(=O)N[C@@H](Cc2ccc(O)cc2)C(=O)N[C@@H](Cc2c[nH]c3ccccc23)C(=O)N[C@@H](C)C(=O)N[C@@H](CCC(N)=O)C(=O)N[C@@H](CC(C)C)C(=O)N1)C(=O)N[C@@H](C)C(N)=O` (single isomer, unassigned) [compound 442], for which the concentration giving a half-maximal response (EC50) was under 5 µM.

As to `CC[C@H](C)[C@H](NC(=O)[C@H](C)NC(=O)[C@H](C)NC(=O)[C@]1(C)CCCC=CCCCCCC[C@@](C)(NC(=O)[C@H](Cc2ccccc2)NC(=O)[C@@H](NC(=O)[C@H](CCC(=O)O)NC(C)=O)[C@@H](C)O)C(=O)N[C@@H](CCC(=O)O)C(=O)N[C@@H](Cc2c[nH]cn2)C(=O)N[C@@H](Cc2c[nH]c3ccccc23)C(=O)N[C@@H](C)C(=O)N[C@@H](CCC(N)=O)C(=O)N[C@@H](CC(C)C)C(=O)N1)C(=O)N[C@H](C)C(N)=O` (single isomer, unassigned) [compound 175], the EC50 was over 30 µM.

For the compound `CC(=O)N[C@@H](CC(C)C)C(=O)N[C@H](C(=O)N[C@@H](Cc1ccc(F)c(F)c1)C(=O)N[C@]1(C)CCCCCC/C=C/CCC[C@@](C)(C(=O)N[C@@H](CO)C(=O)N[C@@H](C)C(=O)N[C@@H](C)C(N)=O)NC(=O)[C@H](CCC(C)C)NC(=O)[C@H](CCC(N)=O)NC(=O)[C@H](C)NC(=O)[C@H](Cc2c[nH]c3ccccc23)NC(=O)[C@H](Cc2ccc(O)cc2)NC(=O)[C@H](CCC(=O)O)NC1=O)[C@@H](C)O` [compound 160], the EC50 is over 30 µM.

For the compound `CC(=O)N[C@@H](CCC(=O)O)C(=O)N[C@H](C(=O)N[C@@H](Cc1ccccc1)C(=O)N[C@]1(C)CCCCCCC=CCCC[C@@](C)(C(=O)N[C@@H](CO)C(=O)N[C@H](C(=O)N[C@@H](C)C(N)=O)C(C)C)NC(=O)[C@H](CC(C)C)NC(=O)[C@H](CCC(N)=O)NC(=O)[C@H](C)NC(=O)[C@H](Cc2c[nH]c3ccccc23)NC(=O)[C@H](Cc2ccc(O)cc2)NC(=O)[C@H](C(C)C)NC1=O)[C@@H](C)O` [compound 126], the concentration giving a half-maximal response (EC50) is over 30 µM.

On to `CC(=O)N[C@@H](CC(C)C)C(=O)N[C@H](C(=O)N[C@@H](Cc1ccccc1)C(=O)N[C@]1(C)CCCCCCC=CCCC[C@@](C)(C(=O)N[C@@H](CO)C(=O)N[C@@H](C)C(=O)N[C@@H](C)C(=O)N[C@H](C)C(N)=O)NC(=O)[C@H](CC2CCC2)NC(=O)[C@H](CCC(N)=O)NC(=O)[C@H](C)NC(=O)[C@H](Cc2c[nH]c3ccccc23)NC(=O)[C@H](Cc2ccc(O)cc2)NC(=O)[C@H](CCC(=O)O)NC1=O)[C@@H](C)O` (single isomer, unassigned) [compound 353], for which the EC50 was in the range of 15 to 30 µM.

`CC(=O)N[C@@H](CC(C)C)C(=O)N[C@H](C(=O)N[C@@H](Cc1ccccc1)C(=O)N[C@]1(C)CCCCCCC=CCCC[C@@](C)(C(=O)N[C@@H](CO)C(=O)N[C@@H](CC(C)C)C(=O)N[C@@H](C)C(N)=O)NC(=O)[C@H](CC(C)C)NC(=O)[C@H](CCC(N)=O)NC(=O)[C@H](C)NC(=O)[C@H](Cc2c[nH]c3ccccc23)NC(=O)[C@H](Cc2ccc(O)cc2)NC(=O)[C@H](C)NC1=O)[C@@H](C)O` (single isomer, unassigned) [compound 118]: the 50% effective concentration (EC50) is under 5 µM.

Turning to `CC(=O)N[C@@H](CC(C)C)C(=O)N[C@H](C(=O)N[C@@H](Cc1ccccc1)C(=O)N[C@]1(C)CCCCCC/C=C/CCC[C@@](C)(C(=O)N[C@@H](CO)C(=O)N[C@@H](C)C(=O)N[C@@H](C)C(N)=O)NC(=O)[C@H](CC(C)C)NC(=O)[C@H](CCC(N)=O)NC(=O)[C@H](C)NC(=O)[C@H](Cc2c[nH]c3cc(Cl)ccc23)NC(=O)[C@H](Cc2ccc(O)cc2)NC(=O)[C@H](C)NC1=O)[C@@H](C)O` [compound 99], the half-maximal effective concentration (EC50) was under 5 µM.

As to `CC(C)C[C@H](NC(=O)CN(C)C)C(=O)N[C@H](C(=O)N[C@@H](Cc1ccccc1)C(=O)N[C@]1(C)CCCCCCC=CCCC[C@@](C)(C(=O)N[C@@H](CO)C(=O)N[C@@H](C)C(=O)N[C@@H](C)C(N)=O)NC(=O)[C@H](CC2CCC2)NC(=O)[C@H](CCC(N)=O)NC(=O)[C@H](C)NC(=O)[C@H](Cc2c[nH]c3ccccc23)NC(=O)[C@H](Cc2ccc(O)cc2)NC(=O)[C@H](CCC(=O)O)NC1=O)[C@@H](C)O` [compound 435], the EC50 fell in the range of 15 to 30 µM.

As for `CSCC[C@H](NC(=O)[C@H](C)NC(=O)[C@H](CO)NC(=O)[C@]1(C)CCCC=CCCCCCC[C@@](C)(NC(=O)[C@H](Cc2ccccc2)NC(=O)[C@@H](NC(=O)[C@H](CC(C)C)NC(C)=O)[C@@H](C)O)C(=O)N[C@@H](C)C(=O)N[C@@H](Cc2ccc(O)cc2)C(=O)N[C@@H](Cc2c[nH]c3ccccc23)C(=O)N[C@@H](C)C(=O)N[C@@H](CCC(N)=O)C(=O)N[C@@H](CC(C)C)C(=O)N1)C(N)=O` [compound 5], the EC50 was under 5 µM.

As to `CC(=O)N[C@@H](CC(C)C)C(=O)N[C@H](C(=O)N[C@@H](Cc1ccccc1)C(=O)N[C@]1(C)CCCCCCC=CCCC[C@@](C)(C(=O)N[C@@H](CO)C(=O)N[C@@H](C)C(=O)NC(C)(C)C(N)=O)NC(=O)[C@H](CC(C)C)NC(=O)[C@H](CCC(N)=O)NC(=O)[C@H](C)NC(=O)[C@H](Cc2c[nH]c3ccccc23)NC(=O)[C@H](Cc2ccc(O)cc2)NC(=O)[C@H](C)NC1=O)[C@@H](C)O` [compound 10], the EC50 is 5 to 15 µM.

As for `CC(=O)N[C@@H](CCC(=O)O)C(=O)N[C@H](C(=O)N[C@@H](Cc1ccccc1)C(=O)N[C@]1(C)CCCCCCC=CCCC[C@@](C)(C(=O)N[C@@H](CO)C(=O)N[C@@H](C)C(=O)N[C@@H](C)C(N)=O)NC(=O)[C@H](CC(C)C)NC(=O)[C@H](CCC(N)=O)NC(=O)[C@H](C)NC(=O)[C@H](Cc2c[nH]c3ccccc23)NC(=O)[C@H](Cc2ccc(O)cc2)NC(=O)[C@H](C(C)C)NC1=O)[C@@H](C)O` [compound 125], the 50% effective concentration (EC50) is 5 to 15 µM.

Consider `CC(=O)N[C@@H](CC(C)C)C(=O)N[C@H](C(=O)N[C@@H](Cc1ccccc1)C(=O)N[C@]1(C)CCCCCCC=CCCC[C@@](C)(C(=O)N[C@@H](C)C(=O)N[C@@H](Cc2c[nH]cn2)C(=O)N[C@@H](Cc2ccccc2)C(=O)N[C@@H](C)C(N)=O)NC(=O)[C@H](CC(C)C)NC(=O)[C@H](CCC(N)=O)NC(=O)[C@H](C)NC(=O)[C@H](Cc2c[nH]c3ccccc23)NC(=O)[C@H](Cc2ccc(O)cc2)NC(=O)[C@H](C)NC1=O)[C@@H](C)O` [compound 50], for which the concentration giving a half-maximal response (EC50) was under 5 µM.

Take `CC(=O)N[C@@H](CC(C)C)C(=O)N[C@H](C(=O)N[C@@H](Cc1ccccc1)C(=O)N[C@]1(C)CCCCCCC=CCCC[C@@](C)(C(=O)N[C@@H](CO)C(=O)N[C@@H](C)C(=O)N[C@@H](C)C(N)=O)NC(=O)[C@H](CC(C)C)NC(=O)[C@H](C)NC(=O)[C@H](C(C)C)NC(=O)[C@H](Cc2c[nH]c3ccccc23)NC(=O)[C@H](Cc2ccc(O)cc2)NC(=O)[C@H](C)NC1=O)[C@@H](C)O` [compound 196]: the EC50 was under 5 µM.

Turning to `CCCC[C@H](NC(=O)[C@H](C)NC(=O)[C@H](C)NC(=O)[C@]1(C)CCCC=CCCCCCC[C@@](C)(NC(=O)[C@H](Cc2ccccc2)NC(=O)[C@@H](NC(=O)[C@H](CC(C)C)NC(C)=O)[C@@H](C)O)C(=O)N[C@@H](C)C(=O)N[C@@H](Cc2ccc(O)cc2)C(=O)N[C@@H](Cc2c[nH]c3ccccc23)C(=O)NC(C)(C)C(=O)N[C@@H](CCC(N)=O)C(=O)N[C@@H](CC(C)C)C(=O)N1)C(=O)N[C@@H](C)C(N)=O` (single isomer, unassigned) [compound 390], the EC50 is under 5 µM.

With `CC(=O)N[C@@H](CC(C)C)C(=O)N[C@H](C(=O)N[C@@H](Cc1ccccc1)C(=O)N[C@]1(C)CCCCCC/C=C/CCC[C@@](C)(C(=O)N[C@@H](C)C(=O)N[C@@H](C)C(=O)N[C@@H](C)C(=O)N[C@@H](C)C(=O)N[C@@H](C)C(=O)N[C@H](C)C(N)=O)NC(=O)[C@H](CC2CCC2)NC(=O)[C@H](CCC(N)=O)NC(=O)[C@H](C)NC(=O)[C@H](Cc2c[nH]c3ccccc23)NC(=O)[C@H](Cc2ccc(C(=O)O)cc2)NC(=O)[C@H](CCC(=O)O)NC1=O)[C@@H](C)O` [compound 349], the 50% effective concentration (EC50) is 5 to 15 µM.

With `CC(=O)N[C@@H](CCC(=O)O)C(=O)N[C@H](C(=O)N[C@@H](Cc1ccccc1)C(=O)N[C@]1(C)CCCCCCC=CCCC[C@@](C)(C(=O)N[C@@H](CO)C(=O)N[C@@H](C)C(=O)N[C@@H](C)C(N)=O)NC(=O)[C@H](CC(C)C)NC(=O)[C@H](CCC(N)=O)NC(=O)[C@H](C)NC(=O)[C@H](Cc2c[nH]c3ccccc23)NC(=O)[C@H](Cc2ccc(O)cc2)NC(=O)[C@H](CCC(=O)O)NC1=O)[C@@H](C)O` [compound 161], the EC50 was over 30 µM.

Consider `CCCC[C@H](NC(=O)[C@H](C)NC(=O)[C@H](C)NC(=O)[C@]1(C)CCCC=CCCCCCC[C@@](C)(NC(=O)[C@H](Cc2ccccc2)NC(=O)[C@@H](NC(=O)[C@H](CC(C)C)NC(C)=O)[C@@H](C)O)C(=O)N[C@@H](C)C(=O)N[C@@H](Cc2ccc(O)cc2)C(=O)N(C)[C@@H](Cc2c[nH]c3ccccc23)C(=O)N[C@@H](C)C(=O)N[C@@H](CCC(N)=O)C(=O)N[C@@H](CC(C)C)C(=O)N1)C(=O)N[C@@H](C)C(N)=O` (single isomer, unassigned) [compound 386], for which the EC50 is under 5 µM.

As for `CC[C@H](C)[C@H](NC(=O)[C@H](C)NC(=O)[C@H](C)NC(=O)[C@]1(C)CCCC=CCCCCCC[C@@](C)(NC(=O)[C@H](Cc2ccccc2)NC(=O)[C@@H](NC(=O)[C@H](CC(C)C)NC(=O)CN(C)C)[C@@H](C)O)C(=O)N[C@@H](CCC(=O)O)C(=O)N[C@@H](Cc2ccc(C(=O)O)cc2)C(=O)N[C@@H](Cc2c[nH]c3ccccc23)C(=O)N[C@@H](C)C(=O)N[C@@H](CCC(N)=O)C(=O)N[C@@H](CC2CCC2)C(=O)N1)C(=O)N[C@H](C)C(N)=O` (single isomer, unassigned) [compound 440], the concentration giving a half-maximal response (EC50) fell in the range of 15 to 30 µM.
